From US20230011131A1, “NOVEL COMPOUND FOR INHIBITING HISTONE ACETYLTRANSFERASE P300 AND ANTI-FIBROSIS COMPOSITION COMPRISING SAME” (REFURE LIFE SCIENCE INC., priority 2019, published 2023)

The chains behind the UniProt entries cited, without tags or fusion partners.
UniProt Q09472, whole entry: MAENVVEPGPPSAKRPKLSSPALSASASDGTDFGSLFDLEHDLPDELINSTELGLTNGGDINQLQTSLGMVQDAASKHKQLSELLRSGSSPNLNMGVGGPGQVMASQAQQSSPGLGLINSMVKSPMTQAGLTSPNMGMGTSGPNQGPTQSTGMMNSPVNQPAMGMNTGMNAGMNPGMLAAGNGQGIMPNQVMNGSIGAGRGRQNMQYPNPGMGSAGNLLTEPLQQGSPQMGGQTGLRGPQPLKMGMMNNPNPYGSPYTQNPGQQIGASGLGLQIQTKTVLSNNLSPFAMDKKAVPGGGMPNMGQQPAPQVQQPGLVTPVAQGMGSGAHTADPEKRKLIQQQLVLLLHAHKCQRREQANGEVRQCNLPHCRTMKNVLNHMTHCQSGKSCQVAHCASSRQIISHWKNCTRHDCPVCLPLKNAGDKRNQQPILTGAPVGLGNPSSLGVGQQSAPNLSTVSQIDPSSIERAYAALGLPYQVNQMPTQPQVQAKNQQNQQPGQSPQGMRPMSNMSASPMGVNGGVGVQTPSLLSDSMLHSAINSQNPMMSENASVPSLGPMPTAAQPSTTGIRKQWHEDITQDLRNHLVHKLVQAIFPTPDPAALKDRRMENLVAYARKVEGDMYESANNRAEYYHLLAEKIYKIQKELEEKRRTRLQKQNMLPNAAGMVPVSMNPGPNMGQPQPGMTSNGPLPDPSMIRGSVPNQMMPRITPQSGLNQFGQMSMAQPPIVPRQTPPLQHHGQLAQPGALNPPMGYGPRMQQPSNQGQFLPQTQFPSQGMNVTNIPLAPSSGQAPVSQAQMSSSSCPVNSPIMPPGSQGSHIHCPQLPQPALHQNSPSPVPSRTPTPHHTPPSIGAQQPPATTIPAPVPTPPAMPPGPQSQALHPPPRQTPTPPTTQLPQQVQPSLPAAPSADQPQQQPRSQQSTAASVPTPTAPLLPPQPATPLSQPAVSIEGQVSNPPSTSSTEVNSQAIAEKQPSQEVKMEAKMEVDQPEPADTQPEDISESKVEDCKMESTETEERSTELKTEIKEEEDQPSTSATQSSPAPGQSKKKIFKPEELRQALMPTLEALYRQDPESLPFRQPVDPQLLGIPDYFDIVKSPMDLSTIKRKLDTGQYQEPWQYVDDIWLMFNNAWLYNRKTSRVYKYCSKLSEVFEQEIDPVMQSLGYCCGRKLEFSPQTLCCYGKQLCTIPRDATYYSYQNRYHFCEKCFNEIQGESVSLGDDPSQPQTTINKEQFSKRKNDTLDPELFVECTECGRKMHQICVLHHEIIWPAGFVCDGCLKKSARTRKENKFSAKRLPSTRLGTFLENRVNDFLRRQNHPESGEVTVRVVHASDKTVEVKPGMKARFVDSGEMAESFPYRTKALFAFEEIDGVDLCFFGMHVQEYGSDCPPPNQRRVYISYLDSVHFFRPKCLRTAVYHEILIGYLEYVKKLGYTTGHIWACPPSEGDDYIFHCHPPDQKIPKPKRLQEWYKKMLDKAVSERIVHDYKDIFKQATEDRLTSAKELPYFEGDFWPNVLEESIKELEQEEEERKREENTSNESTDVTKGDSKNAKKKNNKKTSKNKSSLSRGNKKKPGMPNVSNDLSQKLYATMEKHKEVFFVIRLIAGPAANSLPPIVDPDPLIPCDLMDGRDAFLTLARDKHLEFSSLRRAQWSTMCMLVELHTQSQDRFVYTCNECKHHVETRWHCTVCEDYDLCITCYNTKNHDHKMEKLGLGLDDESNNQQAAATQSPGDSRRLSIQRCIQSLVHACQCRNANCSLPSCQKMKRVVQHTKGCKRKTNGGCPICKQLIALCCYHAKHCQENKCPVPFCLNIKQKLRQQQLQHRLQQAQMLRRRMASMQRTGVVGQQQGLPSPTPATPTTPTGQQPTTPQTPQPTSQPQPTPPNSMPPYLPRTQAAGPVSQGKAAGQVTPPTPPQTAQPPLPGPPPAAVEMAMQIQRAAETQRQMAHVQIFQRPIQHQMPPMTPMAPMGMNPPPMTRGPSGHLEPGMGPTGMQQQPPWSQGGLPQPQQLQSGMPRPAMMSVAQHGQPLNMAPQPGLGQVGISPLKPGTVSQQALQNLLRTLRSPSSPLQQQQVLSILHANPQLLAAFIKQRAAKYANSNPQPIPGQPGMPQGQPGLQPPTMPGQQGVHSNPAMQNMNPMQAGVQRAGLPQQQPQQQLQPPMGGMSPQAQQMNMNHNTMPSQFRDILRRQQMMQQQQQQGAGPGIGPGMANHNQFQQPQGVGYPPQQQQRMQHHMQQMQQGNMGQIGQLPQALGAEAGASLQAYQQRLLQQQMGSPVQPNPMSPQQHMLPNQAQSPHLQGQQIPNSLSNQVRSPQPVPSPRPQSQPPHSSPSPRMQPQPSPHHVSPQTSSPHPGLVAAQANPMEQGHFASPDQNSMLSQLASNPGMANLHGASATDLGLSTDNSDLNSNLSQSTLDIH

Target: HAT p300 (histone acetyltransferase p300) (Homo sapiens, UniProt Q09472)
Experiment: HAT activity kit (Biovision K332): inhibition of HAT activity of p300
Type: biochemical
Details: read-out: IC50 (μM), inhibition of HAT activity; secondary screening; 0.5, 1, 10 and 100 μM
Method: Candidates 1 to 67, which are HAT inhibitors manufactured based on the PCAF structure, and HAT-24, HAT-26, and HAT-28 were diluted to 100 μM, and the degree of inhibition of HAT activity of p300 (inhibitory activity) was then determined using a kit for measuring HAT activity (Biovision, Cat No. K332, U.S.A) according to the method provided by the manufacturer. Here, the tissue was treated with C646 (HAT inhibitor) as a positive control.
Candidates 1 to 14 having a good HAT activity inhibitory effect in Section were diluted to concentrations of 0.5 μM, 1 μM, 10 μM, and 100 μM. Thereafter, the degree of inhibition of HAT activity was determined in the same manner as in Section.
Each of Synthesis Examples 1 to 24 was diluted to 100 μM, and the degree of inhibition of HAT p300 activity was determined in the same manner as in Section. Here, the tissues were treated with C646 and Candidate 12 (HAT-12) as the control instead of Synthesis Examples 1 to 24.

| SMILES | IC50 [µM] |
| --- | --- |
| COc1cc(/C=C/C(=O)c2cc(OC)c(OC)c(OC)c2)cc(I)c1OCc1cccc(Cl)c1 | 0.953 |
| COc1cc(/C=C/C(=O)c2cc(OC)c(OC)c(OC)c2)cc(Cl)c1OCc1cccc(Cl)c1 | 13.1 |
| COc1cc(/C=C/C(=O)c2cc(OC)c(OC)c(OC)c2)cc(Br)c1OCc1cccc(C(N)=O)c1 | 35.8 |
| COc1cc(/C=C/C(=O)c2cc(OC)c(OC)c(OC)c2)cc(Cl)c1OCc1cccc(C(N)=O)c1 | 32.8 |
| COc1cc(/C=C/C(=O)c2cc(OC)c(OC)c(OC)c2)cc(Br)c1OCc1cccc(Cl)c1 | 41.7 |
